According to PubChem BioAssay (NCI):
The list shows a part of the results, in another mix than the full data.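 48-hour exposure, single concentration, 96-well plates; percent growth endpoint where 0 means no net growth. Active: below 10.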 Calls of active or inactive are those of the source.

How the values were obtained:
Test in all cases: NCI-60 one-dose screen, 48 h (100 = growth as untreated, 0 = no growth, -100 = all killed)
Conditions in all cases: 10 µM unless noted
[1] = tested on: MOLT-4 leukemia
[2] = tested on: SR leukemia
[3] = tested on: RPMI-8226 leukemia
[4] = tested on: OVCAR-8 ovarian
[5] = tested on: OVCAR-5 ovarian
[6] = tested on: OVCAR-4 ovarian
[7] = tested on: SK-OV-3 ovarian
[8] = tested on: IGROV1 ovarian
[9] = tested on: OVCAR-3 ovarian
[10] = tested on: HS 578T breast

Row | Compound | growth [1] | growth [2] | growth [3] | growth [4] | growth [5] | growth [6] | growth [7] | growth [8] | growth [9] | growth [10]
1 | CCN(CC)CCOC(=O)C(O)(c1cccc(OC)c1OC)c1cccc(OC)c1OC | inactive: 113% | inactive: 111% | inactive: 99.3% | inactive: 92.4% | inactive: 109% | inactive: 117% | inactive: 98.5% | inactive: 102% | inactive: 104% | inactive: 93.4%
2 | CN(C)C(=O)Oc1ccc(/C=N/NC(N)=S)nc1 | inactive: 89.5% | inactive: 67.5% | inactive: 93.1% |  | inactive: 92.2% | inactive: 66% | inactive: 88.1% | inactive: 90.2% | inactive: 86.9% | inactive: 109%
3 | Nc1cccc2ccc([As](=O)(O)O)cc12 | inactive: 103% |  | inactive: 105% | inactive: 103% | inactive: 102% | inactive: 90.9% | inactive: 114% | inactive: 108% | inactive: 114% | 
4 | COC(=O)C1(C)COP(=O)(Nc2ccccc2)OC1 (stereo unspecified) | inactive: 75.8% |  |  | inactive: 104% | inactive: 108% | inactive: 109% | inactive: 97.4% | inactive: 98.2% | inactive: 107% | inactive: 96.9%
5 | Nc1cccc2c([As](=O)(O)O)cccc12 | inactive: 74% |  | inactive: 122% | inactive: 104% | inactive: 98.3% | inactive: 103% | inactive: 111% | inactive: 109% | inactive: 112% | 
6 | O=C(O)CNc1ccc([As](=O)(O)O)cc1 | inactive: 101% | inactive: 107% |  | inactive: 108% | inactive: 132% | inactive: 100% | inactive: 100% |  | inactive: 109% | inactive: 98.2%
7 | OC(CNCCCl)C(O)C(O)C(O)CNCCCl (stereo unspecified) | inactive: 82.3% | inactive: 71.7% |  | inactive: 86% | inactive: 106% | inactive: 94.9% | inactive: 103% | inactive: 94.1% | inactive: 109% | inactive: 120%
8 | CCCC1OP(=O)(Nc2ccccc2)OCC1CC (stereo unspecified) | inactive: 98.7% |  | inactive: 104% | inactive: 98.5% | inactive: 101% | inactive: 107% | inactive: 106% |  | inactive: 106% | inactive: 101%
9 | S=P1(S)SC(Nc2ccccc2)CN1c1ccccc1 (stereo unspecified) | inactive: 104% |  | inactive: 99.3% | inactive: 105% | inactive: 98.9% | inactive: 111% | inactive: 100% | inactive: 102% | inactive: 113% | inactive: 103%
10 | O=[As]1(O)c2ccccc2-c2ccccc21 | inactive: 83.9% |  | inactive: 99% | inactive: 99.5% | inactive: 93.5% | inactive: 97.3% | inactive: 114% | inactive: 110% | inactive: 109% | 
11 | O=C(Nc1cc([As](=O)(O)O)ccc1O)c1ccccc1 |  |  |  | inactive: 98.4% | inactive: 103% | inactive: 106% | inactive: 108% | inactive: 117% | inactive: 120% | inactive: 112%
12 | O=Cc1sc(N(CCCl)CCCl)nc1Cl | inactive: 93% | inactive: 88.9% |  | inactive: 92.8% | inactive: 111% | inactive: 111% | inactive: 97% | inactive: 103% | inactive: 102% | inactive: 89.3%
13 | Nc1ccccc1[As](=O)(O)c1ccccc1 | inactive: 108% |  | inactive: 90.4% | inactive: 101% | inactive: 116% | inactive: 120% | inactive: 110% | inactive: 75% | inactive: 112% | inactive: 71.6%
14 | COP(=O)(OC)N(CCCl)CCCl | inactive: 50.9% |  | inactive: 97.5% | inactive: 99.4% | inactive: 102% | inactive: 94.1% | inactive: 101% | inactive: 97.1% | inactive: 110% | inactive: 112%
15 | Nc1ccc(N=Nc2ccc([As](=O)(O)O)cc2)cc1 | inactive: 97.6% |  | inactive: 110% | inactive: 114% | inactive: 95.6% | inactive: 107% | inactive: 99.8% | inactive: 104% | inactive: 107% | inactive: 111%
16 | CN(C)P(=O)(Nc1ccccn1)N(C)C | inactive: 105% |  | inactive: 103% | inactive: 103% | inactive: 110% | inactive: 107% | inactive: 107% | inactive: 117% | inactive: 113% | inactive: 124%
17 | COc1cc(I)ccc1[As](=O)(O)O | inactive: 95.5% | inactive: 109% |  | inactive: 97.6% | inactive: 153% | inactive: 106% | inactive: 109% |  |  | inactive: 144%

Row | Compound | growth [1] | growth [2] | growth [3] | growth [4] | growth [5] | growth [6] | growth [7] | growth [8] | growth [9] | growth [10]
18 | COC(=O)C1(C)COP(=O)(NCc2ccccc2)OC1 (stereo unspecified) | inactive: 80.9% |  | inactive: 120% | inactive: 102% | inactive: 105% | inactive: 110% | inactive: 92.2% | inactive: 110% | inactive: 109% | inactive: 107%
19 | O=[As](O)(O)c1cccnc1 | inactive: 108% | inactive: 127% |  | inactive: 108% | inactive: 115% | inactive: 108% | inactive: 104% |  | inactive: 104% | inactive: 125%
20 | Nc1ccc([As](=O)(O)c2ccc(N)cc2)cc1 | inactive: 125% |  | inactive: 99.3% | inactive: 100% | inactive: 101% | inactive: 118% | inactive: 100% | inactive: 84.5% | inactive: 103% | inactive: 144%
21 | O=P(O)(O)F | inactive: 108% | inactive: 107% |  | inactive: 99.1% | inactive: 96.5% | inactive: 116% | inactive: 129% | inactive: 105% | inactive: 106% | inactive: 109%
22 | O=C(O)c1ccccc1[As](=O)(O)O | inactive: 72.8% |  | inactive: 75% | inactive: 111% | inactive: 134% | inactive: 104% | inactive: 95.1% | inactive: 99.1% | inactive: 91.8% | inactive: 88.5%
23 | COC(=O)C1(C)COP(=O)(N2CCCCCC2)OC1 (stereo unspecified) | inactive: 94.7% |  | inactive: 123% | inactive: 105% | inactive: 114% | inactive: 110% | inactive: 91.7% | inactive: 110% | inactive: 110% | inactive: 109%
24 | Cc1ccccc1OP(=O)(Cl)Oc1ccccc1C | inactive: 88.9% | inactive: 86.8% |  | inactive: 105% | inactive: 104% |  | inactive: 97.5% | inactive: 96.5% | inactive: 118% | inactive: 119%
25 | COC(=O)c1ccc(N2CCOP2(=O)Cl)cc1O (stereo unspecified) | inactive: 92.5% |  | inactive: 93.8% | inactive: 100% | inactive: 97.1% | inactive: 103% | inactive: 112% | inactive: 110% | inactive: 116% | inactive: 110%
26 | Cc1c([N+](=O)[O-])cc(C(=O)c2cc([N+](=O)[O-])cc([N+](=O)[O-])c2)cc1[N+](=O)[O-] | inactive: 85% |  | inactive: 85.9% | inactive: 98% | inactive: 122% | inactive: 97.1% | inactive: 124% | inactive: 97.2% | inactive: 87.3% | inactive: 119%
27 | O=C(O)COc1ccc([As](=O)(O)O)cc1[N+](=O)[O-] | inactive: 107% |  | inactive: 110% | inactive: 115% | inactive: 86.5% | inactive: 83.9% | inactive: 112% | inactive: 128% | inactive: 117% | 
28 | Nc1ccc([As](=O)(O)c2ccc([N+](=O)[O-])cc2)cc1 | inactive: 89.2% |  | inactive: 90.5% | inactive: 110% | inactive: 80.9% | inactive: 109% | inactive: 107% | inactive: 140% | inactive: 102% | inactive: 102%
29 | COC(=O)C(=[N+]=[N-])C(=O)c1cc([N+](=O)[O-])cc([N+](=O)[O-])c1 |  |  | inactive: 101% | inactive: 105% | inactive: 113% | inactive: 107% | inactive: 113% | inactive: 111% | inactive: 115% | inactive: 107%
30 | ClP1(Cl)=NP(Cl)(Cl)=NP(Cl)(Cl)=N1 | inactive: 93% |  | inactive: 89.2% | inactive: 100% | inactive: 90.6% | inactive: 124% | inactive: 109% | inactive: 101% | inactive: 119% | inactive: 77.2%
31 | O=c1ccc(Oc2ccc([N+](=O)[O-])cc2[N+](=O)[O-])nn1-c1ccc([N+](=O)[O-])cc1[N+](=O)[O-] | active: -4.14% | inactive: 13.9% |  | inactive: 62.6% | inactive: 82.4% | active: -94.2% | inactive: 88.7% | inactive: 82.4% | active: -94.6% | inactive: 48.7%
32 | CCOC(=O)Nc1cccc([As](=O)(O)O)c1 | inactive: 95% | inactive: 97.2% |  | inactive: 101% | inactive: 125% | inactive: 97.6% | inactive: 101% |  | inactive: 92.9% | inactive: 94.5%
33 | NC1=NCC(Br)CS1 (stereo unspecified) | inactive: 99% |  | inactive: 92.4% | inactive: 109% | inactive: 106% | inactive: 92.2% | inactive: 121% |  | inactive: 106% | inactive: 102%
34 | CN1C(=O)N(C)P12(Cl)N(C)C(=O)N2C | inactive: 102% |  | inactive: 102% | inactive: 101% | inactive: 117% | inactive: 108% | inactive: 112% | inactive: 108% | inactive: 114% | inactive: 98.7%
